Source: ChEMBL document CHEMBL4800730

The chains behind the UniProt entries cited, without tags or fusion partners.
UniProt Q99720, whole entry: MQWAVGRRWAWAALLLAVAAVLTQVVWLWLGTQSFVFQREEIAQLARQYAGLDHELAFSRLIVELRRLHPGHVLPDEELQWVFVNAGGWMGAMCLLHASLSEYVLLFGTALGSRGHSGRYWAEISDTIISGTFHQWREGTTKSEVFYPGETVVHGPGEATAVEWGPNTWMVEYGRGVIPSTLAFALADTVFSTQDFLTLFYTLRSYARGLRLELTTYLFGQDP
UniProt P41145, whole entry: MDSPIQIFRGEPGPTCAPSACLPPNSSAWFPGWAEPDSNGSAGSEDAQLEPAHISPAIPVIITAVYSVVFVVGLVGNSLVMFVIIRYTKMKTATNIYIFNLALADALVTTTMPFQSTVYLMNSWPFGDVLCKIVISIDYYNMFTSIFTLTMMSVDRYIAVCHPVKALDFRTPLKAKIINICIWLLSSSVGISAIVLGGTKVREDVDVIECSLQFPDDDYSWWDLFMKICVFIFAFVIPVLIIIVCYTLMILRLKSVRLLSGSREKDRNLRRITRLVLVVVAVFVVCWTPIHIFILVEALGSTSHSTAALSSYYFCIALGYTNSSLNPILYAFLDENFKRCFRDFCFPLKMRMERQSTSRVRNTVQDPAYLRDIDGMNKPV
UniProt P41143, whole entry: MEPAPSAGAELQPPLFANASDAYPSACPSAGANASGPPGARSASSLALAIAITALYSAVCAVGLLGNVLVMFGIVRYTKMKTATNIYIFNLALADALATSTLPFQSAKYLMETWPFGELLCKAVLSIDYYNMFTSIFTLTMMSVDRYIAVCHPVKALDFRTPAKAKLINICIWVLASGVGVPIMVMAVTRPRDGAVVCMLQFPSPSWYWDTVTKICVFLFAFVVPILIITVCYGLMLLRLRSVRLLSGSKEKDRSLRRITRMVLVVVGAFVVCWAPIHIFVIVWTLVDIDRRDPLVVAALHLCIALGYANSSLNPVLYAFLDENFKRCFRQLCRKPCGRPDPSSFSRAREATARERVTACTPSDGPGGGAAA
UniProt P35372, whole entry: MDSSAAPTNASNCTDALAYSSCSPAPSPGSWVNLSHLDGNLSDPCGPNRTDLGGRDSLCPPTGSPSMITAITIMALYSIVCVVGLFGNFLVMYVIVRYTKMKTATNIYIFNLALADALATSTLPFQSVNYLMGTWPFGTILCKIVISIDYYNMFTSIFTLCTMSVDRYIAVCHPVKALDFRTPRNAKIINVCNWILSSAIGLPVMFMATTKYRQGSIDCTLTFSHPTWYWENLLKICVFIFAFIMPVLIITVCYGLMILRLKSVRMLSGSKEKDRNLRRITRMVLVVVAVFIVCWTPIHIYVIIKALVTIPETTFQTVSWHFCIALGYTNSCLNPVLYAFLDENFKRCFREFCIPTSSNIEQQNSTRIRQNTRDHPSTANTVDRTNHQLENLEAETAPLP

Assays:
Details in all cases: Compound concentration 10.0 uM
[1] = target: Sigma non-opioid intracellular receptor 1 (Homo sapiens) (UniProt Q99720); assay: GPCRScan assay: inhibition of Sigma 1; parameters: radioligand conc. used [nm] 4.0 – 5.0, parental cells HEKT
[2] = target: Kappa-type opioid receptor (Homo sapiens) (UniProt P41145); assay: GPCRScan assay: inhibition of KOR
[3] = target: Delta-type opioid receptor (Homo sapiens) (UniProt P41143); assay: GPCRScan assay: inhibition of DOR; parameters: radioligand conc. used [nm] 1.0 – 2.0, parental cells stable HEK
[4] = target: Mu-type opioid receptor (Homo sapiens) (UniProt P35372); assay: GPCRScan assay: inhibition of MOR

Measured: inhibition

C=CC(=O)Nc1ccc2[nH]c(=O)n(C3CCN(Cc4ccc(-c5nc6cc[nH]c(=O)c6cc5-c5ccccc5)cc4)CC3)c2c1
inactive: [1] 17.8% | [2] 48.7% | [3] 24.1% | [4] 32.4%
